Laboratory results: ChEMBL document CHEMBL4251569, “Camptothecin-psammaplin A hybrids as topoisomerase I and HDAC dual-action inhibitors” (Eur J Med Chem, 2018)

The chains behind the UniProt entries cited, without tags or fusion partners. Where a name states a change or a piece, a line headed by the entry shows the natural chain unless it says otherwise.
UniProt P56524: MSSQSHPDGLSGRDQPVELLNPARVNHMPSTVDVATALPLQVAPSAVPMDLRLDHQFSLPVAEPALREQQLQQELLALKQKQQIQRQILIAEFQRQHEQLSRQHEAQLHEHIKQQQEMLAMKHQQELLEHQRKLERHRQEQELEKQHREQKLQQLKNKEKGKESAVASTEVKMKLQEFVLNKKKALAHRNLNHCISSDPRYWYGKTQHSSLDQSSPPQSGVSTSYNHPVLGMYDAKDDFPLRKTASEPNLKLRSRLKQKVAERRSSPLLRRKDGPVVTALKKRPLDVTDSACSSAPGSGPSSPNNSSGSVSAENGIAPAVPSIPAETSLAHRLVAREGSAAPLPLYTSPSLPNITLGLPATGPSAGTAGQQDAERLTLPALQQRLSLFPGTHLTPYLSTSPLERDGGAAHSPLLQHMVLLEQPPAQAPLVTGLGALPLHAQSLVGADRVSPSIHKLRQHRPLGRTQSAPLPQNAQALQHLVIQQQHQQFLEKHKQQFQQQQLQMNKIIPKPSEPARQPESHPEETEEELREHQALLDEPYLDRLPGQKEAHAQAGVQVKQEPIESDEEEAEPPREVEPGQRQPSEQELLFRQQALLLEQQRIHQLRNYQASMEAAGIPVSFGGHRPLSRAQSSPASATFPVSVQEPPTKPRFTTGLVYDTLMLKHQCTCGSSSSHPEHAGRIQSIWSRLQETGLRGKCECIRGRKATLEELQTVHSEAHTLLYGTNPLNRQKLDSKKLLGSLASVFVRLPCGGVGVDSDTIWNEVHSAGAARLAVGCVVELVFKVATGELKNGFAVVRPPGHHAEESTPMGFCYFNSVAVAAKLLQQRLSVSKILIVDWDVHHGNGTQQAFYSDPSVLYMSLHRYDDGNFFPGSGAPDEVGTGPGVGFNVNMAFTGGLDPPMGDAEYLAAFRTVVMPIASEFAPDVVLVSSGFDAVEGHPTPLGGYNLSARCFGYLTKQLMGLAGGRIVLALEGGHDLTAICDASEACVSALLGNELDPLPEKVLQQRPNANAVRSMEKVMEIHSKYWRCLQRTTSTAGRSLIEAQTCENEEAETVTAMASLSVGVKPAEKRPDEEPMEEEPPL

Assays:
Histone deacetylase 4 [1] = molecular target: T1, Histone deacetylase 4 (Homo sapiens, UniProt P56524); experiment: Inhibition of HDAC4 (unknown origin) using fluorogenic substrate as substrate assessed as remaining activity at 1.37 x 10^-8 M after 1 to 2 hrs by fluorescence assay
Histone deacetylase 4 [2] = molecular target: T1, Histone deacetylase 4; experiment: Inhibition of HDAC4 (unknown origin) using fluorogenic substrate as substrate assessed as remaining activity at 1.23 x 10^-7 M after 1 to 2 hrs by fluorescence assay
Histone deacetylase 4 [3] = molecular target: T1, Histone deacetylase 4; experiment: Inhibition of HDAC4 (unknown origin) using fluorogenic substrate as substrate assessed as remaining activity at 5.08 x 10^-10 M after 1 to 2 hrs by fluorescence assay
Histone deacetylase 4 [4] = molecular target: T1, Histone deacetylase 4; experiment: Inhibition of HDAC4 (unknown origin) using fluorogenic substrate as substrate assessed as remaining activity at 1.11 x 10^-6 M after 1 to 2 hrs by fluorescence assay
Histone deacetylase 4 [5] = molecular target: T1, Histone deacetylase 4; experiment: Inhibition of HDAC4 (unknown origin) using fluorogenic substrate as substrate assessed as remaining activity at 4.12 x 10^-8 M after 1 to 2 hrs by fluorescence assay
Histone deacetylase 4 [6] = molecular target: T1, Histone deacetylase 4; experiment: Inhibition of HDAC4 (unknown origin) using fluorogenic substrate as substrate assessed as remaining activity at 1 x 10^-5 M after 1 to 2 hrs by fluorescence assay
Histone deacetylase 4 [7] = molecular target: T1, Histone deacetylase 4; experiment: Inhibition of HDAC4 (unknown origin) using fluorogenic substrate as substrate assessed as remaining activity at 1.52 x 10^-9 M after 1 to 2 hrs by fluorescence assay
Histone deacetylase 4 [8] = molecular target: T1, Histone deacetylase 4; experiment: Inhibition of HDAC4 (unknown origin) using fluorogenic substrate as substrate assessed as remaining activity at 3.70 x 10^-7 M after 1 to 2 hrs by fluorescence assay
Histone deacetylase 4 [9] = molecular target: T1, Histone deacetylase 4; experiment: Inhibition of HDAC4 (unknown origin) using fluorogenic substrate as substrate assessed as remaining activity at 3.33 x 10^-6 M after 1 to 2 hrs by fluorescence assay
Histone deacetylase 4 [10] = molecular target: T1, Histone deacetylase 4; experiment: Inhibition of HDAC4 (unknown origin) using fluorogenic substrate as substrate assessed as remaining activity at 4.57 x 10^-9 M after 1 to 2 hrs by fluorescence assay

| SMILES | Activity (Histone deacetylase 4 [1]) | Activity (Histone deacetylase 4 [2]) | Activity (Histone deacetylase 4 [3]) | Activity (Histone deacetylase 4 [4]) | Activity (Histone deacetylase 4 [5]) | Activity (Histone deacetylase 4 [6]) | Activity (Histone deacetylase 4 [7]) | Activity (Histone deacetylase 4 [8]) | Activity (Histone deacetylase 4 [9]) | Activity (Histone deacetylase 4 [10]) |
| --- | --- | --- | --- | --- | --- | --- | --- | --- | --- | --- |
| CC[C@@]1(O)C(=O)OCc2c1cc1n(c2=O)Cc2c-1nc1ccc(O)cc1c2/C=N/OCCCCCC(=O)NCCSSCCNC(=O)/C(Cc1ccc(O)c(Br)c1)=N\O | 116% | 109% | 104% | 102% | 109% | 101% | 111% | 106% | 100% | 112% |
| O=C(NCC1(c2nc(-c3ccccc3)cs2)CCOCC1)c1cccc(-c2noc(C(F)(F)F)n2)c1 | 101% | 77.8% | 99.5% | 23% | 92.6% | 3.26% | 95.3% | 46.3% | 8.15% | 106% |
| CC[C@@]1(O)C(=O)OCc2c1cc1n(c2=O)Cc2c-1nc1ccccc1c2/C=N/OCCCCCC(=O)NCCSSCCNC(=O)/C(Cc1ccc(O)c(Br)c1)=N\O | 103% | 102% | 109% | 101% | 104% | 77.1% | 108% | 99.1% | 87.6% | 109% |
